Measured values taken from ChEMBL document CHEMBL1150295, “Synthesis and receptor binding properties of 2beta-alkynyl and 2beta-(1,2,3-triazol)substituted 3beta-(substituted phenyl)tropane derivatives” (Bioorg Med Chem, 2008).

Sequences of proteins named here, by UniProt entry; tags and fusion partners are left off.
UniProt P31645, whole entry: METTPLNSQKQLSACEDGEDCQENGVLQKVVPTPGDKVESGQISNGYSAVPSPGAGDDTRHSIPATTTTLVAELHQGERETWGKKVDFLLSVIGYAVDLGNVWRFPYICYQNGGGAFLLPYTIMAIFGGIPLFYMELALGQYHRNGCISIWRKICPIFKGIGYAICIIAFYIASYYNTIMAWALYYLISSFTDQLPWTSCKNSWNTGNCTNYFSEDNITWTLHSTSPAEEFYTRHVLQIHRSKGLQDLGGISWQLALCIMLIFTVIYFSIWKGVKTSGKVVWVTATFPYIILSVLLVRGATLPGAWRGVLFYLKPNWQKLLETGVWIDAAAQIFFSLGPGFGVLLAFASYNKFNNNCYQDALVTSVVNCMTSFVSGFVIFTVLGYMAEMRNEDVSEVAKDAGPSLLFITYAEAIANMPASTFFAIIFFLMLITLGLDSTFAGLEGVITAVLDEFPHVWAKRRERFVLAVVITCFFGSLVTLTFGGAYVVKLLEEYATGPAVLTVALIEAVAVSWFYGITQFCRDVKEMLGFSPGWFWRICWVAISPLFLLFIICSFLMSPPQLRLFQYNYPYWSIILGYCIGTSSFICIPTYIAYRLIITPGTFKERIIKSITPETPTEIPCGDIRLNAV

Target: Sodium-dependent serotonin transporter (Homo sapiens, UniProt P31645)
Assay: Displacement of [3H]paroxetine from serotonin transporter

COC(=O)[C@H]1[C@@H](c2ccccc2)C[C@@H]2CC[C@H]1N2C
Ki: 182 nM
